Experimental findings from PubChem BioAssay AID2216 (Broad Institute, 2009) are described below.

Only a part is listed here, and it is no random draw. Inconclusive results are not listed. The source made the active and inactive calls.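 The calls were made as follows: active = more than half of the replicate wells show a fall in the fluorescence ratio signal beyond about 16% (limit read from the data, passing the limit was not always enough); inconclusive = exactly half of the replicate wells pass the set limit; inactive = fewer than half of replicates pass the limit.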

The inhibition is the drop in the measured response relative to a control, in per cent.

In this assay the test system is Ran GTPase (GTP-bound) - importin-beta complex. Put plainly: disruptors of Ran-importin-beta complex formation – biochemical, FRET, CFP-Ran, YFP-importin-beta, homogeneous, primary screen (AID 2216).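 Also: 0% = DMSO wells and 100% = Ran loaded with GDP instead of GTP.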 The settings on record: cell-free CFP-Ran/YFP-importin-beta FRET ratio; active compounds read high; concentration not given here.
As to `O=C(NCC1(N2CCCCC2)CCCCC1)c1cccc(C(F)(F)F)c1`, the inhibition was inactive: -0.88%.
Turning to `O=C(NCC1(N2CCOCC2)CCCCC1)c1cc(=O)[nH]c2ccccc12`, the inhibition is inactive: 2.66%.
The figure for `COc1cc(C(=O)NCC2(N3CCCCC3)CCCCC2)ccc1OC(F)F` is inactive: 1.13%.
Then `COc1ccc(NC2CCN(C(=O)OC(C)(C)C)CC2)cc1`, with inactive: 7.66%; and `CN1CCN(CCOC(=O)C(O)(c2ccccc2)c2ccccc2)CC1`, with inactive: 4.75%.
Turning to `N#CC1(Nc2ccccc2)CCN(CCc2ccccc2)CC1`, the inhibition is inactive: 5%.
Consider `CCN1CCC(Nc2ccc(Cl)cc2)CC1`, for which the inhibition was inactive: 0.412%.
Then `O=C(NCC1(N2CCCCC2)CCCCC1)c1cccc([N+](=O)[O-])c1`, with inactive: -0.369%; and `CN1CCC(Nc2cccc(F)c2)CC1`, with inactive: -1.9%.
For `CCCOc1ccc(C(=O)NCC2(N(C)C)CCCCC2)cc1OC`, the inhibition is inactive: -1.15%.
For `CC(C)c1ccc(NC2CCN(C(=O)OC(C)(C)C)CC2)cc1`, the inhibition is inactive: -1.08%.
As to `CN(C)c1cccc(C(=O)NCC2(N3CCCCC3)CCCCC2)c1`, the inhibition was inactive: 1.02%.
Consider `COc1ccc(CN(CCCl)CCCl)cc1Cl`, for which the inhibition was inactive: 0.0227%.
`COc1cc(OC)c(C(=O)NCC2(N(C)C)CCCCC2)cc1OC`: the inhibition was inactive: 7.63%.
For `Cc1cc(C)cc(N(C(=O)c2ccccc2)C2CCN(C(=O)OC(C)(C)C)CC2)c1`, the inhibition was inactive: 0.539%.
For the compound `O=C(NCC1(N2CCCCC2)CCCCC1)c1ccc(Cl)nc1`, the inhibition was inactive: -2.21%.
Then `O=C(NCC1(N2CCOCC2)CCCCC1)c1cc2ccccc2o1`, with inactive: -1.37%; and `O=C(OC1CN2CCC1CC2)C1c2ccccc2Oc2ccccc21` (stereo not drawn), with inactive: -0.879%.
Take `N#CC1(Nc2ccccc2)CCN(Cc2ccccc2)CC1`: the inhibition was inactive: 4.05%.
`CCOC(=O)N1CCC(Nc2ccc(OC)cc2)CC1`: the inhibition is inactive: -2.71%.
Turning to `COc1ccc(C(=O)NCC2(N3CCCCC3)CCCCC2)c(OC)c1OC`, the inhibition was inactive: -2.1%.
Regarding `COc1ccc(C(=O)NCC2(N3CCCCC3)CCCCC2)cc1`, the inhibition was inactive: -0.59%.
Turning to `O=C(NCC1(N2CCCCC2)CCCCC1)c1cccs1`, the inhibition was inactive: 0.833%.
`O=C(NCC1(N2CCCCC2)CCCCC1)c1ccc(=O)[nH]c1`: the inhibition is inactive: -3.07%.
As to `CSc1ccccc1C(=O)NCC1(N2CCCCC2)CCCCC1`, the inhibition was inactive: 1.78%.
The figure for `Cc1ccc(OCC(C)C)c(CN(CCCl)CCCl)c1` is inactive: 0.495%; for `COc1cc(C(=O)NCC2(N(C)C)CCCCC2)ccc1OC(F)F` it is inactive: -1.78%.
Take `CCOC(=O)N1CCC(Nc2cccc(C)c2)CC1`: the inhibition was inactive: 4.57%.
